Results on 16 molecules are retold here after ChEMBL document CHEMBL3259632, “Discovery of dual orexin receptor antagonists with rat sleep efficacy enabled by expansion of the acetonitrile-assisted/diphosgene-mediated 2,4-dichloropyrimidine synthesis” (2014).

Chains of the proteins cited; added tags and fusions are not shown.
UniProt O43613, whole entry, looked up: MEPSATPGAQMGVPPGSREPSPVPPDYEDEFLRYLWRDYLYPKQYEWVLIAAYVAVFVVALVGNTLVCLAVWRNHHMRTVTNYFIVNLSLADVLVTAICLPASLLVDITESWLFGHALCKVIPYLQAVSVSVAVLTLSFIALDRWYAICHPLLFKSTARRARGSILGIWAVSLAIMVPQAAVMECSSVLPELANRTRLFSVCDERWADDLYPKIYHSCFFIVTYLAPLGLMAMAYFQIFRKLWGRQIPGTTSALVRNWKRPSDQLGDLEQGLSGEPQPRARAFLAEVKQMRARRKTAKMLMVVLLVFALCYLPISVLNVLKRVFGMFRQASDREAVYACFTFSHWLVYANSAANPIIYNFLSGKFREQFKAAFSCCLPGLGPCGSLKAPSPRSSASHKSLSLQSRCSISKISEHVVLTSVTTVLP
UniProt O43614, whole entry, looked up: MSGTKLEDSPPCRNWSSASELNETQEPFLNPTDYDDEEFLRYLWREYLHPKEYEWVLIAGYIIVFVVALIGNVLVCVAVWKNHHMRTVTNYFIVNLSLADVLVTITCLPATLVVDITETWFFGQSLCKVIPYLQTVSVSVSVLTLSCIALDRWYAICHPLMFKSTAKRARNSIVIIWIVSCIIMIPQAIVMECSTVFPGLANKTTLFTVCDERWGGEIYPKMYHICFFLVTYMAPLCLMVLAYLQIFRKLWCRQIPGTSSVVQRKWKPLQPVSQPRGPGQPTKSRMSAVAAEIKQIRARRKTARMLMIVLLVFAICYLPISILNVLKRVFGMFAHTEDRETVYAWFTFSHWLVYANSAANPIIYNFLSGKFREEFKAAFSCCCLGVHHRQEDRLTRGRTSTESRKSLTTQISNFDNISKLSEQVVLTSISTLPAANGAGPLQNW

The target of series [1] is T1, Orexin/Hypocretin receptor type 1 (Homo sapiens, UniProt O43613). Description: Displacement of [3H]radioligand from human orexin-1 receptor expressed in CHO cells after 3 hrs by scintillation counting analysis. Background: In a radioligand displacement assay an active substance lowers the binding of a labelled ligand.
Series [2] concerns the target T2, Orexin receptor type 2 (Homo sapiens, UniProt O43614). Description: Displacement of [3H]radioligand from human orexin-2 receptor expressed in CHO cells after 3 hrs by scintillation counting analysis.
For series [3], the target named is T1, Orexin/Hypocretin receptor type 1. Description: Antagonist activity at human orexin-1 receptor expressed in CHO cells assessed as inhibition of Ala-6, 12-induced responses by FLIPR assay.
The target of series [4] is T2, Orexin receptor type 2. Description: Antagonist activity at human orexin-2 receptor expressed in CHO cells assessed as inhibition of Ala-6, 12-induced responses by FLIPR assay.
Series [5] deals with Rattus norvegicus. Description: AUC in rat at 10 mg/kg, po administered in dosed as the hydrochloride salt in 100% PEG200. The note with it: in vivo, Plasma.
Series [6] deals with Rattus norvegicus. Description: Tmax in rat at 10 mg/kg, po administered in dosed as the hydrochloride salt in 100% PEG200. The note with it: in vivo.
In series [7] the test system is Rattus norvegicus. Description: Oral bioavailability in rat at 10 mg/kg administered in dosed as the hydrochloride salt in 100% PEG200. The following applies: in vivo.
In series [8] the test system is Rattus norvegicus. Description: In vivo sleep efficacy in Sprague-Dawley rat assessed as active wake sleep at 25 mg/kg, po monitored for 2 hrs.
In series [9] the test system is Rattus norvegicus. Description: In vivo sleep efficacy in Sprague-Dawley rat assessed as light sleep at 25 mg/kg, po monitored for 2 hrs.
Series [10] relates to Rattus norvegicus. Description: In vivo sleep efficacy in Sprague-Dawley rat assessed as slow wave sleep at 25 mg/kg, po monitored for 2 hrs.
In series [11] the test system is Rattus norvegicus. Description: In vivo sleep efficacy in Sprague-Dawley rat assessed as REM sleep at 25 mg/kg, po monitored for 2 hrs.
Series [12] concerns Rattus norvegicus. Description: In vivo occupancy of orexin-2 receptor in transgenic rat at 2 uM plasma concentration.
The subject of series [13] is Rattus norvegicus. Description: In vivo sleep efficacy in Sprague-Dawley rat assessed as active wake sleep at 30 mg/kg, po monitored for 2 hrs.
Series [14] concerns Rattus norvegicus. Description: In vivo sleep efficacy in Sprague-Dawley rat assessed as light sleep at 30 mg/kg, po monitored for 2 hrs.
In series [15] the test system is Rattus norvegicus. Description: In vivo sleep efficacy in Sprague-Dawley rat assessed as slow wave sleep at 30 mg/kg, po monitored for 2 hrs.
The subject of series [16] is Rattus norvegicus. Description: In vivo sleep efficacy in Sprague-Dawley rat assessed as REM sleep at 30 mg/kg, po monitored for 2 hrs.
Series [17] deals with Liver microsome. Description: Bioactivation in rat liver microsomes assessed as GSH adducts formation relative to standard. In general terms: Microsomes from liver hold many membrane-bound enzymes, among them those of drug oxidation.
Series [18] relates to Liver microsome. Description: Bioactivation in human liver microsomes assessed as GSH adducts formation relative to standard.
Series [19] can be described thus: Plasma protein binding in human.
Series [20] can be described thus: Lipophilicity, log D of the compound by HPLC method.
A short description of series [21]: Plasma protein binding in rat.
Series [22] in a line: Plasma protein binding in dog.
Series [23] concerns Rattus norvegicus. Description: Volume of distribution at steady state in rat at 2 mg/kg, iv. The following applies: in vivo.
Series [24] relates to Rattus norvegicus. Description: Half life in rat at 2 mg/kg, iv. The note with it: in vivo.
Series [25] concerns Rattus norvegicus. Description: Cmax in rat at 10 mg/kg, po administered in dosed as the hydrochloride salt in 100% PEG200. The note with it: in vivo.
In series [26] the test system is Canis familiaris. Description: Volume of distribution at steady state in dog at 0.5 mg/kg, iv. The following applies: in vivo.
The subject of series [27] is Canis familiaris. Description: Half life in dog at 0.5 mg/kg, iv. The note with it: in vivo.

As to `Cc1nn(C)c2nc(N3CC[C@@H](C)N(C(=O)c4ccccc4-n4nccn4)CC3)ncc12`, the Ki (usually a measure of affinity in units of concentration, obtained from inhibition or displacement) in series [1] came to 4.5 nM; at Orexin receptor type 2 [2] it was 92 nM. Moreover, the IC50 – broadly, the midpoint of a concentration-inhibition curve – is 200 nM in [3] and 280 nM on Orexin receptor type 2 [4].

On to `Cc1ccc(-n2nccn2)c(C(=O)N2CCN(c3ncc4c(C)nn(C)c4n3)CC[C@H]2C)c1`, for which the inhibition constant (Ki) is 0.8 nM in [1] and 3.7 nM at Orexin receptor type 2 [2]. In addition, the IC50 in series [3] came to 119 nM; on Orexin receptor type 2 [4], 85 nM.

Take `Cc1ccc(-n2nccn2)c(C(=O)N2CCN(c3ncc4c(C)coc4n3)CC[C@H]2C)c1`: the Ki in [1] turned out to be 0.2 nM; on Orexin receptor type 2 [2] it was 0.6 nM. The IC50 in series [3] is 45 nM; at Orexin receptor type 2 [4], 34 nM.

On to `Cc1csc2nc(N3CC[C@@H](C)N(C(=O)c4ccccc4-n4nccn4)CC3)nc(N)c12.Cl`, for which the AUC – broadly, the area under the concentration-time curve, a measure of exposure – with Rattus norvegicus [5] came out at 2.8 µM·h. Further, the Tmax (usually the time from dosing to the highest level) with Rattus norvegicus [6] was determined as 18 min. Besides, the bioavailability (as a rule, the share of a dose that reaches the circulation, judged against a reference dose that is usually intravenous) with Rattus norvegicus [7] stood at 17%. Moreover, the Time in the series with Rattus norvegicus [8] is 53 min; in the series on Rattus norvegicus [9], 12 min; with Rattus norvegicus [10], 46 min; with Rattus norvegicus [11], 9 min. The same molecule yielded an Activity in the series on Rattus norvegicus [12] of 88%.

In the case of `C[C@@H]1CCN(c2ncc3cc(F)ccc3n2)CCN1C(=O)c1ccccc1-n1nccn1`, the Time with Rattus norvegicus [13] amounted to 58 min; in the series on Rattus norvegicus [14], 14 min; in the series on Rattus norvegicus [15], 41 min; in the series on Rattus norvegicus [16], 7 min. In addition, the Drug metabolism entry in the series on Liver microsome [17] and with Liver microsome [18] was “metabolite_detected” each time.

In the case of `Cc1ccc(-n2nccn2)c(C(=O)N2CCN(c3ncc4c(C)c(C)oc4n3)CC[C@H]2C)c1`, the Ki (in series [1]; on Orexin receptor type 2 [2]) was 0.5 nM throughout. Further, the IC50 is 67 nM in series [3] and 42 nM on Orexin receptor type 2 [4].

As to `Cc1coc2nc(N3CC[C@@H](C)N(C(=O)c4ccccc4-n4nccn4)CC3)nc(N)c12`, the Ki in [1] is 1.8 nM; at Orexin receptor type 2 [2] it was 25 nM. The figures for the IC50 (in series [3]; on Orexin receptor type 2 [4]) were 195 nM and 210 nM, respectively.

Turning to `Cc1ccc(-n2nccn2)c(C(=O)N2CCN(c3nc(N)c4c(C)coc4n3)CC[C@H]2C)c1`, the Ki in series [1] turned out to be 1.8 nM; on Orexin receptor type 2 [2] it was 5 nM. For the same molecule, the values for the IC50 (in series [3]; on Orexin receptor type 2 [4]) were 195 nM and 160 nM, respectively.

With `Cc1ccc(-n2nccn2)c(C(=O)N2CCN(c3nc(N)c4cc(C)sc4n3)CC[C@H]2C)c1`, the Ki (in series [1]; at Orexin receptor type 2 [2]) was 0.4 nM throughout. The results for the IC50 (in [3]; on Orexin receptor type 2 [4]) were 47 nM and 35 nM, respectively.

Consider `Cc1ccc(-n2nccn2)c(C(=O)N2CCN(c3ncc4cnn(C)c4n3)CC[C@H]2C)c1`, for which the Ki in series [1] came to 2 nM; on Orexin receptor type 2 [2], 49 nM. The IC50 is 92 nM in series [3] and 70 nM on Orexin receptor type 2 [4].

As for `Cc1ccc(-n2nccn2)c(C(=O)N2CCN(c3nc(N)c4c(C)csc4n3)CC[C@H]2C)c1`, the Ki (in series [1]; on Orexin receptor type 2 [2]) was 0.3 nM each time. Further, the IC50 was 53 nM in series [3] and 43 nM at Orexin receptor type 2 [4].

For the molecule `Cc1ccc(-n2nccn2)c(C(=O)N2CCN(c3nc(N)c4ccsc4n3)CC[C@H]2C)c1`, the Ki in series [1] is 0.5 nM; on Orexin receptor type 2 [2], 0.7 nM. The IC50 is 26 nM in series [3] and 34 nM at Orexin receptor type 2 [4].

As for `Cc1cc2c(N)nc(N3CC[C@@H](C)N(C(=O)c4ccccc4-n4nccn4)CC3)nc2s1`, the inhibition constant Ki in [1] was 0.7 nM; at Orexin receptor type 2 [2], 1.5 nM. Besides, the IC50 worked out at 31 nM in series [3] and 34 nM at Orexin receptor type 2 [4].

Turning to `Cc1ccc(-n2nccn2)c(C(=O)N2CCN(c3ncc4c(C)csc4n3)CC[C@H]2C)c1`, the PPB in series [19] stood at 99.4%; in [21], 99.3%. In series [20], the logD (usually lipophilicity at a set pH, counting ionised and neutral species) was 3.8. For the same molecule, the Ki came out at 0.3 nM in series [1] and 0.2 nM on Orexin receptor type 2 [2]. Also, the IC50 in [3] came out at 37 nM; at Orexin receptor type 2 [4], 35 nM.

In the case of `Cc1csc2nc(N3CC[C@@H](C)N(C(=O)c4ccccc4-n4nccn4)CC3)nc(N)c12`, the PPB in series [19] was determined as 98.5%; in series [22] it was 97.8%; in [21], 98.9%. In [20], this molecule gave a logD of 2. In addition, the Ki in [1] is 0.3 nM; at Orexin receptor type 2 [2], 1.2 nM. For the same molecule, the IC50 was 28 nM in series [3] and 29 nM on Orexin receptor type 2 [4]. The Vdss (as a rule, a proportionality between amount in the body and measured concentration, not a real space) in the series with Rattus norvegicus [23] amounted to 0.3 L/kg; in the series on Canis familiaris [26], 0.7 L/kg. Besides, the t1/2 came to 12 min in the series on Rattus norvegicus [24] and 48 min with Canis familiaris [27]. The Cmax (in general, the maximum level reached in the sampled fluid or tissue) in the series on Rattus norvegicus [25] was 3.8 µM. Also, the Drug metabolism result in the series with Liver microsome [17] and in the series with Liver microsome [18] was “metabolite_detected” each time.

Turning to `C[C@@H]1CCN(c2nc(N)c3ccsc3n2)CCN1C(=O)c1ccccc1-n1nccn1`, the Ki in series [1] worked out at 0.9 nM; on Orexin receptor type 2 [2] it was 9.2 nM. Further, the figures for the IC50 (in series [3]; at Orexin receptor type 2 [4]) were 15 nM and 35 nM, respectively.
